Assay results: publication PMC3326523, “Histone Recognition and Large-Scale Structural Analysis of the Human Bromodomain Family” (Cell, 2012)
Blank lines part the entries; values can stand above or below the substance they belong to.

Assays:
[1] = target: Histone H4 K5acK12ac peptide (Homo sapiens) (UniProt P62805); details: cited from earlier work
[2] = target: Histone H4 K12ac peptide (Homo sapiens) (UniProt P62805); details: cited from earlier work
[3] = target: BRD2(1), first bromodomain of BRD2 (human) (UniProt P25440); assay: ITC; peptide (mM stock) titrated into bromodomain (about 50 μM), by the concentrations in the tables; 10 or 15°C, 50 mM HEPES pH 7.5, 150 mM NaCl; single binding site model
[4] = target: BRD2(2), second bromodomain of BRD2 (human) (UniProt P25440); assay: as above
[5] = target: BRD4(2), second bromodomain of BRD4 (human) (UniProt O60885); assay: as above
[6] = target: CREBBP bromodomain (human) (UniProt Q92793); assay: as above
[7] = target: TAF1(2), second bromodomain of TAF1 (human) (UniProt P21675); assay: as above
[8] = target: BRD2(1), first bromodomain of BRD2 (human) (UniProt P25440); assay: ITC; as a1; rows with N of about 0.5 or 0.25: two or more bromodomains on one peptide, apparent binding constants, events not deconvoluted
[9] = target: BRD2(2), second bromodomain of BRD2 (human) (UniProt P25440); assay: as above
[10] = target: BRDT(1), first bromodomain of BRDT (human) (UniProt Q58F21); assay: ITC; peptide (mM stock) titrated into bromodomain (about 50 μM), by the concentrations in the tables; 10 or 15°C, 50 mM HEPES pH 7.5, 150 mM NaCl; single binding site model

Substance: BRD2 bromodomain (from UniProt P25440)
- Kd [1]: 360 µM
- Kd [2]: 2900 µM

- Kd [3]: 29.4 µM
- stoichiometry N [3]: 1
- Kd [4]: 27.2 µM
- stoichiometry N [4]: 1
Substance: H4K12/16 peptide GKacGGAKacRHRKV

- Kd [5]: 260 µM
- stoichiometry N [5]: 1.03
- stoichiometry N [6]: 1.03
- stoichiometry N [7]: 1.03
Substance: H3K14 peptide KSTGGKacAPRKQY

- Kd [3]: 13.5 µM
- stoichiometry N [3]: 0.99
- Kd [4]: 32.8 µM
- stoichiometry N [4]: 0.96
Substance: H4K5/K8 peptide SGRGKacGGKacGLGY

- Kd [8]: 27.9 µM
- stoichiometry N [8]: 0.5
- Kd [9]: 41 µM
- stoichiometry N [9]: 0.5
Substance: H4K12/16/20 peptide GKacGGAKacRHRKacV

- Kd [9]: 55.9 µM
- stoichiometry N [9]: 0.51
- Kd [3]: 65.8 µM
- stoichiometry N [3]: 1
Substance: H4K8/12 peptide GKacGLGKacGGAKR

- Kd [10]: 150 µM
- stoichiometry N [10]: 0.96
Substance: H4K12 peptide GKGLGKacGGAKRY

- Kd [8]: 3.7 µM
- stoichiometry N [8]: 0.53
- Kd [9]: 34.7 µM
- stoichiometry N [9]: 0.5
- Kd [10]: 23 µM
- stoichiometry N [10]: 2.04
Substance: H4K5/8/12/16 peptide YSGRGKacGGKacGLGKacGGAKacRHRK
